The target in experiment [1] is T1, E3 ubiquitin-protein ligase XIAP (Homo sapiens, UniProt P98170).
The target in experiment [2] is T1, E3 ubiquitin-protein ligase XIAP. The source holds these as a separate data set.
The target is the same in experiment [3]. The source holds these as a separate data set.

Chains of the proteins cited; added tags and fusions are not shown.
UniProt P98170, whole entry: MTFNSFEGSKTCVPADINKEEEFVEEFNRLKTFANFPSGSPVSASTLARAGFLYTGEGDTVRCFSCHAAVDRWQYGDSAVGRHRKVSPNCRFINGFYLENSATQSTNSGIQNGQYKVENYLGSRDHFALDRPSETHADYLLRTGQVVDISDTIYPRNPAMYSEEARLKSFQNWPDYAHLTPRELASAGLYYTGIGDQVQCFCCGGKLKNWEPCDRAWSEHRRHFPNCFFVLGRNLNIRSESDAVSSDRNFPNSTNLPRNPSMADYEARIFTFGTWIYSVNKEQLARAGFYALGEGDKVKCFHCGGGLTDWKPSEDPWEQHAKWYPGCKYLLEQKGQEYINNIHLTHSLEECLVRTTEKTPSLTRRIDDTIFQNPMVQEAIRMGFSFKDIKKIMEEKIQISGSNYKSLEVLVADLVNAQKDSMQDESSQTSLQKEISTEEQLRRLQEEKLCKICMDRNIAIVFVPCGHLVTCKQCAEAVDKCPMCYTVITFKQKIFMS

Each structure is given as a SMILES string.

Turning to `CC(C)[C@H](NC(=O)[C@H](C)N)C(=O)N1CCC[C@H]1C(=O)N[C@@H](Cc1ccccc1)C(=O)O`, the IC50 in experiment [1] stood at 56 nM; in experiment [2] it was 108 nM; in experiment [3], 64 nM.
